{
  "sequences": {"note": "Chains of the proteins cited; added tags and fusions are not shown. Lines headed by an entry give the natural chain unless they say otherwise; changes in a name come on top.", "UniProt Q05513": "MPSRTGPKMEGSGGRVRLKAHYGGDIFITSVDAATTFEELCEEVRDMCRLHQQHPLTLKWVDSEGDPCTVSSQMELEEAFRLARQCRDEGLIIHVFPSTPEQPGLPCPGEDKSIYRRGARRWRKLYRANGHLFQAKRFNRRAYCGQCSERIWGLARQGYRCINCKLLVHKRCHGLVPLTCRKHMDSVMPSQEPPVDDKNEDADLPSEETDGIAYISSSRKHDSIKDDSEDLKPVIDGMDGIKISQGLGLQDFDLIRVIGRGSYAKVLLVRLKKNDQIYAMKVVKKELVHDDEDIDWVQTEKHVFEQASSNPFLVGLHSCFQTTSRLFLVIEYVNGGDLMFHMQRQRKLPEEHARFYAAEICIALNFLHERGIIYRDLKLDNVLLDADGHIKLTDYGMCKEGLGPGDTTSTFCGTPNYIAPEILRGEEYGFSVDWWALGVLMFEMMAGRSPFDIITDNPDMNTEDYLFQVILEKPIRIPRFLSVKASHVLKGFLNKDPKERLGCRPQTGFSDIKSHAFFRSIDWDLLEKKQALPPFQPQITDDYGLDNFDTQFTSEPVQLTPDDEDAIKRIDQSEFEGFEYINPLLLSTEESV", "UniProt P00519, whole entry": "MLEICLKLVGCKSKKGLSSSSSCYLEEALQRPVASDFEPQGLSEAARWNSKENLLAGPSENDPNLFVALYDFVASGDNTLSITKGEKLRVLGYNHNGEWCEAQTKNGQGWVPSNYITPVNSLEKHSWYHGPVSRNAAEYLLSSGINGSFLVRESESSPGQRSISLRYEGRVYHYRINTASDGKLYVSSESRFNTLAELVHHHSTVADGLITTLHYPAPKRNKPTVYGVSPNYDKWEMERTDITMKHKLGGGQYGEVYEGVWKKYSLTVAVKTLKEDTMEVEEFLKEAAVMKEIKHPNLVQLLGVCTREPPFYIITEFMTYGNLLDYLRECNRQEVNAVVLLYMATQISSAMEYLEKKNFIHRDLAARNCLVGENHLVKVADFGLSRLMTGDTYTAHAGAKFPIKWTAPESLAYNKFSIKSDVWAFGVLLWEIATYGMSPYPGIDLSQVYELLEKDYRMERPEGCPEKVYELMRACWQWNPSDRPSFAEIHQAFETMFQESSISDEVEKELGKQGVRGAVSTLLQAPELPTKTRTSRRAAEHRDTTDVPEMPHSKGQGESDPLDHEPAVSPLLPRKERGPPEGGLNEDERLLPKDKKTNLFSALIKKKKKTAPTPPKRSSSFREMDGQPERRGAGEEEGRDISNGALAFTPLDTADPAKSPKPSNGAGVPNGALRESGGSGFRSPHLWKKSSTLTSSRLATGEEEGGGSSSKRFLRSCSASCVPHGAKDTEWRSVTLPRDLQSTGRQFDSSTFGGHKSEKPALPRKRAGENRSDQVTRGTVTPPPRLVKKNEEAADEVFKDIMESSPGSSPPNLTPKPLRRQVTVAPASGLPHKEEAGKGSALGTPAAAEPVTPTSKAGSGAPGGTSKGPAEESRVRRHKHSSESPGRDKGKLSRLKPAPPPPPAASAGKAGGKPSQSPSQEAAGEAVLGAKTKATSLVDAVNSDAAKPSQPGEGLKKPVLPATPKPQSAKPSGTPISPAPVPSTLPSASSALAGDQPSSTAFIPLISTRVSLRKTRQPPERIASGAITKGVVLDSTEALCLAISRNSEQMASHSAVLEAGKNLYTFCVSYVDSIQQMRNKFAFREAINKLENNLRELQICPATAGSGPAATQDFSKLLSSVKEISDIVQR", "UniProt P42684, whole entry": "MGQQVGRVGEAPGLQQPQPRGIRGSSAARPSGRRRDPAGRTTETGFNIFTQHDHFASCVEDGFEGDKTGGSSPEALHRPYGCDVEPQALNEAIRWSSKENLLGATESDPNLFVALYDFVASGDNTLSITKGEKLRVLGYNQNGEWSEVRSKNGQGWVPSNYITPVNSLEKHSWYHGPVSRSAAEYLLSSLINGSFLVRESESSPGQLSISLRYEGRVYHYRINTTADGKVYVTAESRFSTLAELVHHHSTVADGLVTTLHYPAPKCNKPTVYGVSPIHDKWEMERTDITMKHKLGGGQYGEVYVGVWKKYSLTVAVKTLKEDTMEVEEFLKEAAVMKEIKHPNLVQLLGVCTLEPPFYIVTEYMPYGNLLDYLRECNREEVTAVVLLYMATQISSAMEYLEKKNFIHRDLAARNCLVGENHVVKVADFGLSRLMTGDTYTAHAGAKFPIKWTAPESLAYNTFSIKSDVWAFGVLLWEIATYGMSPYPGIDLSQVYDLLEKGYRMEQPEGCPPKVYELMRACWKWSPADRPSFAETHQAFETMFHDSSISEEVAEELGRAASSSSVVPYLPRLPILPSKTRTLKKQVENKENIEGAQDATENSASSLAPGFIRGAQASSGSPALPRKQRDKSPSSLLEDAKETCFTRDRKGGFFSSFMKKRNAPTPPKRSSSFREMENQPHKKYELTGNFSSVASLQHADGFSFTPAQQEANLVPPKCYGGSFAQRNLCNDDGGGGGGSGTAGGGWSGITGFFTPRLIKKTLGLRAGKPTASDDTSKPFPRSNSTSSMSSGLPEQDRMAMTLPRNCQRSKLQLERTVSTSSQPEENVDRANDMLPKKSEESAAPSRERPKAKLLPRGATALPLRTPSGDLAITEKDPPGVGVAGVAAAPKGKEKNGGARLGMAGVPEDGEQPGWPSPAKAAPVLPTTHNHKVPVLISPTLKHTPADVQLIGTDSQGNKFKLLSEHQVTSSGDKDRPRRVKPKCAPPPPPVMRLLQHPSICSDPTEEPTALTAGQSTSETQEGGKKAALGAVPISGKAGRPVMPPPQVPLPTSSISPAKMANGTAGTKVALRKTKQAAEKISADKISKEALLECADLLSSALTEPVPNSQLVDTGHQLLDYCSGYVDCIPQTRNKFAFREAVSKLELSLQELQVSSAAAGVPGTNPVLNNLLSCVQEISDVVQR", "UniProt Q06187": "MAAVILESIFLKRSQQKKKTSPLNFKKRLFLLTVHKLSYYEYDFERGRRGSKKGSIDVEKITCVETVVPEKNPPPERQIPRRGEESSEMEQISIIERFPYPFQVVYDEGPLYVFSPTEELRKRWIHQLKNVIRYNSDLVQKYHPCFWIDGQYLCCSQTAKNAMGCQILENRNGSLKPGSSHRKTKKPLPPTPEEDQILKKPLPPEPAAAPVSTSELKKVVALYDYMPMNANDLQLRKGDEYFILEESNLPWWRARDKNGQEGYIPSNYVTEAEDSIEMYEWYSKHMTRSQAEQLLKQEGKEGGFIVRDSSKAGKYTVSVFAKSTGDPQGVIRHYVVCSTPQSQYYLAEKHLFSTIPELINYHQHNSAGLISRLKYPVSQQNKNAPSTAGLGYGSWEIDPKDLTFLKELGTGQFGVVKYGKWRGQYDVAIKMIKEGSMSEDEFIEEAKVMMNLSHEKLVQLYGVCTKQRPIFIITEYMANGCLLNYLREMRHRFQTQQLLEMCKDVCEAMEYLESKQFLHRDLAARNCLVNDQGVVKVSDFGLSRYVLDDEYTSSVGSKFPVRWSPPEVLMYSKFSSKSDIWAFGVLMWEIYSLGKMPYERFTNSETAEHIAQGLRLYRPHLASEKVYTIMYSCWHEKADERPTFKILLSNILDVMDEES", "UniProt P30281": "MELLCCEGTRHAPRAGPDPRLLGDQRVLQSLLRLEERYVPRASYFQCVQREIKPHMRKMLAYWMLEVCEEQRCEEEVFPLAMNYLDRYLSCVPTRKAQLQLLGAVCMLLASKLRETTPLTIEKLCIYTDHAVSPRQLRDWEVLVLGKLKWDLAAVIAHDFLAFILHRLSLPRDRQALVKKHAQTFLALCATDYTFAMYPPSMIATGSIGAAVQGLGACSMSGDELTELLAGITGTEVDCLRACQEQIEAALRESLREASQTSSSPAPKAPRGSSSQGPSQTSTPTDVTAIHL", "UniProt Q09013": "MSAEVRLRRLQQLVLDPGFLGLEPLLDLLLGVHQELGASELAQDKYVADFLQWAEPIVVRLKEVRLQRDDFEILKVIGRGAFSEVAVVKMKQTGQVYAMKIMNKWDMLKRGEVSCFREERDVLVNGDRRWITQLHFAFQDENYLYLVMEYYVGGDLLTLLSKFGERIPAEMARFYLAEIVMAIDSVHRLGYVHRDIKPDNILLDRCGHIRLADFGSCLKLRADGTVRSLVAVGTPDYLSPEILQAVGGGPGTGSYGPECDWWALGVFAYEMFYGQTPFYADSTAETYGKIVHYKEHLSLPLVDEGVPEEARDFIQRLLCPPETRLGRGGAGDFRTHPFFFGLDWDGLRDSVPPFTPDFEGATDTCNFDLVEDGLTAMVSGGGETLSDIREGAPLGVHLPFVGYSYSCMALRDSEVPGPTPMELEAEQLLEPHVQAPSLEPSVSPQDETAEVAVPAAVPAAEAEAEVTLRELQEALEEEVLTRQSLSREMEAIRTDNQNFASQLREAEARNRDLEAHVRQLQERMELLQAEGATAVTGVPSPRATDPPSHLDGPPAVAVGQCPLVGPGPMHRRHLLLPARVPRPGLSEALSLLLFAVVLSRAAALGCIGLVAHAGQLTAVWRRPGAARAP", "UniProt P29323": "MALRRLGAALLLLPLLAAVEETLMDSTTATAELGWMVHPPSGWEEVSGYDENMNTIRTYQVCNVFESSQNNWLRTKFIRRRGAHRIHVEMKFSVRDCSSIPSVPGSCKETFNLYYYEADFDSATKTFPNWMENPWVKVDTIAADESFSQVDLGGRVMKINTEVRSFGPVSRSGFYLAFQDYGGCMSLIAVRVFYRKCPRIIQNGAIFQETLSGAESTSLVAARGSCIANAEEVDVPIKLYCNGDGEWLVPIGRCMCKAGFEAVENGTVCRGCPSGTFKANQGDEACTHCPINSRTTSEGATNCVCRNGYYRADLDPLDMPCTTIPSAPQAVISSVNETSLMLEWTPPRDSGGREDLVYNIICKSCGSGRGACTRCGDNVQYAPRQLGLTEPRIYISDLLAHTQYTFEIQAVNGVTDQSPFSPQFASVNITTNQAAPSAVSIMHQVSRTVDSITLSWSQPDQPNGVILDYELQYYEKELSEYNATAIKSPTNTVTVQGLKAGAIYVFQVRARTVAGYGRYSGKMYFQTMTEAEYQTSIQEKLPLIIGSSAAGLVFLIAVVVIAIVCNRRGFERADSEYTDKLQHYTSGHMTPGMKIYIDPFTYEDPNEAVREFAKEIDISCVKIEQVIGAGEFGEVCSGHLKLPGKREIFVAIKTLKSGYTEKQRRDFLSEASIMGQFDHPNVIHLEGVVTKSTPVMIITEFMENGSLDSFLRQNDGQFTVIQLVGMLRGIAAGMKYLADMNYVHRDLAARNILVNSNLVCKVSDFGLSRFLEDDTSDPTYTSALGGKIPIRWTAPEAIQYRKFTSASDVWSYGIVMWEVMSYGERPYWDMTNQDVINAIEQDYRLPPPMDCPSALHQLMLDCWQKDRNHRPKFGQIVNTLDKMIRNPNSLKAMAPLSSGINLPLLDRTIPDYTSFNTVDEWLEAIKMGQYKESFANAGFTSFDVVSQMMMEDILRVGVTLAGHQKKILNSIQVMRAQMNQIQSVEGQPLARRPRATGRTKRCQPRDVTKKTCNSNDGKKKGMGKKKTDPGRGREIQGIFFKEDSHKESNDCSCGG", "UniProt Q05397, whole entry, looked up": "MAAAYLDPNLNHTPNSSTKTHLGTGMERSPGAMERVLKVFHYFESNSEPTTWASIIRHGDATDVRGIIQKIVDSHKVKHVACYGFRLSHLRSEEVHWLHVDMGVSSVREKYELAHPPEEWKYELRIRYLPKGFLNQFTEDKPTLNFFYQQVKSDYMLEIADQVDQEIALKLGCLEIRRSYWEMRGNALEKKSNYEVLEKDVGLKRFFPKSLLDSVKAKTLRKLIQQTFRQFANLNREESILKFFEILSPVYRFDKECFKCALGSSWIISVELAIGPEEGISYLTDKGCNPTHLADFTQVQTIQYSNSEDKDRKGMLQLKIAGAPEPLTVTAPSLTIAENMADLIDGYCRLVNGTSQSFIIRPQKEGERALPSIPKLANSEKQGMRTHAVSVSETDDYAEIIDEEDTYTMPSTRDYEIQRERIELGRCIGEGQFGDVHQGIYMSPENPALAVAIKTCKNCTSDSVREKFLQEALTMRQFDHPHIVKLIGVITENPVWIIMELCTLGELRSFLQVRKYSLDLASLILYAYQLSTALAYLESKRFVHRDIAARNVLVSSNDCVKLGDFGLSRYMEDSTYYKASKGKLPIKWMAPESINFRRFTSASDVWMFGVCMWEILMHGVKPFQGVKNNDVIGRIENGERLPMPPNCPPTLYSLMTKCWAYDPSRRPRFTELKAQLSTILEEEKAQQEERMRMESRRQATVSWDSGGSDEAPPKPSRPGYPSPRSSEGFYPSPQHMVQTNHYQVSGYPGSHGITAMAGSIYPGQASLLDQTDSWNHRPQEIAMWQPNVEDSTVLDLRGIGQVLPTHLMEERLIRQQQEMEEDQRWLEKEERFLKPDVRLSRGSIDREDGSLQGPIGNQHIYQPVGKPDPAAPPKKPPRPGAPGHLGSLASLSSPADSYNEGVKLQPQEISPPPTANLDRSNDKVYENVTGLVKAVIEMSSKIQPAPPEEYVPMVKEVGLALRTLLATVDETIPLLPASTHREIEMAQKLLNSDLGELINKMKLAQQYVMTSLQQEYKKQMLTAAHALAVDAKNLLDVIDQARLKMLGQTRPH"},
  "source": "ChEMBL document CHEMBL2218924",
  "about": "“A broad activity screen in support of a chemogenomic map for kinase signalling research and drug discovery” (Biochem J, 2013)",
  "key": {"[1]": {"target": "Protein kinase C zeta type (Homo sapiens) (UniProt Q05513)", "details": "at 1 µM"}, "[2]": {"target": "Tyrosine-protein kinase ABL1 (Homo sapiens) (UniProt P00519)", "details": "at 1 µM"}, "[3]": {"target": "Tyrosine-protein kinase ABL1 (Homo sapiens) (UniProt P00519)", "details": "at 10 µM"}, "[4]": {"target": "Tyrosine-protein kinase ABL2 (Homo sapiens) (UniProt P42684)", "details": "at 1 µM"}, "[5]": {"target": "Protein-tyrosine kinase 6 (Homo sapiens) (UniProt Q13882)", "details": "at 1 µM"}, "[6]": {"target": "Protein-tyrosine kinase 6 (Homo sapiens) (UniProt Q13882)", "details": "at 10 µM"}, "[7]": {"target": "Tyrosine-protein kinase BTK (Homo sapiens) (UniProt Q06187)", "details": "at 10 µM"}, "[8]": {"target": "T1, Serine/threonine-protein kinase BRSK2 (Homo sapiens) (UniProt Q8IWQ3)", "T1 sequence (whole entry)": "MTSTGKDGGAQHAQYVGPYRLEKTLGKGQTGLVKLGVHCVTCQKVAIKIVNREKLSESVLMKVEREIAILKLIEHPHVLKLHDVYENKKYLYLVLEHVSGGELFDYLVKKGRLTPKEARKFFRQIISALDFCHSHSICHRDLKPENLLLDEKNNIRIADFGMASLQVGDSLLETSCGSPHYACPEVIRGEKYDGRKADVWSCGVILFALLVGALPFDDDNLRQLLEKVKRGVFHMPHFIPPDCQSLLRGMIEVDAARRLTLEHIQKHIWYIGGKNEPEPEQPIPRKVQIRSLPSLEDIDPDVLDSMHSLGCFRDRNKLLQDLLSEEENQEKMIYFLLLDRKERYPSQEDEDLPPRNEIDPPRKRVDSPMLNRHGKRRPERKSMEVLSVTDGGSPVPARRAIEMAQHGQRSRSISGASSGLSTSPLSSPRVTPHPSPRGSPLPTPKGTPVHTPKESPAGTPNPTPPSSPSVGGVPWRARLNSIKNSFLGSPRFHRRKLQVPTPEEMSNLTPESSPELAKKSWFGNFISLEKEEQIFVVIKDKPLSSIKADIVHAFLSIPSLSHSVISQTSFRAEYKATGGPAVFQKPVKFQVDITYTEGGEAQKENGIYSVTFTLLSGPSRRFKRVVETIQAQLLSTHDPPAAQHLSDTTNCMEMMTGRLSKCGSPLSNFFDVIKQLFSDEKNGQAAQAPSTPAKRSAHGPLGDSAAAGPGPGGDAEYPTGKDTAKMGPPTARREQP", "details": "at 1 µM"}, "[9]": {"target": "CDK6/cyclin D3 (Homo sapiens) (UniProt P30281+Q00534)", "details": "at 1 µM"}, "[10]": {"target": "Serine/threonine-protein kinase Chk1 (Homo sapiens) (UniProt O14757)", "details": "at 1 µM"}, "[11]": {"target": "Serine/threonine-protein kinase Chk1 (Homo sapiens) (UniProt O14757)", "details": "at 10 µM"}, "[12]": {"target": "Tyrosine-protein kinase CSK (Homo sapiens) (UniProt P41240)", "details": "at 1 µM"}, "[13]": {"target": "Calcium/calmodulin-dependent protein kinase type IV (Homo sapiens) (UniProt Q16566)", "details": "at 1 µM"}, "[14]": {"target": "Myotonin-protein kinase (Homo sapiens) (UniProt Q09013)", "details": "at 1 µM"}, "[15]": {"target": "Dual specificity tyrosine-phosphorylation-regulated kinase 2 (Homo sapiens) (UniProt Q92630)", "details": "at 1 µM"}, "[16]": {"target": "T2, Ephrin type-A receptor 1 (Homo sapiens) (UniProt P21709)", "T2 sequence (whole entry)": "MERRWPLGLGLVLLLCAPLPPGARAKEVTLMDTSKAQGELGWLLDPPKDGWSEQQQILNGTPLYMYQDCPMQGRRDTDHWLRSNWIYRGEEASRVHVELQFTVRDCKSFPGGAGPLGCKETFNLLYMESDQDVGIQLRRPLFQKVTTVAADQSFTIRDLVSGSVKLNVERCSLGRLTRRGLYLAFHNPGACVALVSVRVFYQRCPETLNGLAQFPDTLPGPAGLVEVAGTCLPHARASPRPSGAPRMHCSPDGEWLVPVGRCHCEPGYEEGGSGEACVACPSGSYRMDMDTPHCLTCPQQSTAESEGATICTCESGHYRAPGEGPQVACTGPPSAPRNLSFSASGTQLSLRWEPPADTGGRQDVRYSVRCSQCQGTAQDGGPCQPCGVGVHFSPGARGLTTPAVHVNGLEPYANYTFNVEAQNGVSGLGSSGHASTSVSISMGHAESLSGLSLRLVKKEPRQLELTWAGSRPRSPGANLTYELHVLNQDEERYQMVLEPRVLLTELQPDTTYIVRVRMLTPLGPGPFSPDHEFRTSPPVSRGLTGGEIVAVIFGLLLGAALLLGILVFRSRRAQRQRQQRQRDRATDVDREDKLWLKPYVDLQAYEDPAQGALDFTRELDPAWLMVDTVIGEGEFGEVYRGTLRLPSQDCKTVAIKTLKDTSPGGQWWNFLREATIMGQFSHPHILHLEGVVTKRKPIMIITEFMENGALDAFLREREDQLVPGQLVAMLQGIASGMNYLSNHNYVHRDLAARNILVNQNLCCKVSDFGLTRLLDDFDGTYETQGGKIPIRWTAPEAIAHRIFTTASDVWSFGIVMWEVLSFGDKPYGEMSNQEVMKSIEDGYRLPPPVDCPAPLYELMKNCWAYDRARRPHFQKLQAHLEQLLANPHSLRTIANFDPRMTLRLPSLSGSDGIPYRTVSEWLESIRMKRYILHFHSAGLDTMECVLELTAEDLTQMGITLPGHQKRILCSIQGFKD", "details": "at 1 µM"}, "[17]": {"target": "T2, Ephrin type-A receptor 1 (Homo sapiens)", "details": "at 10 µM"}, "[18]": {"target": "Ephrin type-A receptor 2 (Homo sapiens) (UniProt P29317)", "details": "at 10 µM"}, "[19]": {"target": "Ephrin type-A receptor 4 (Homo sapiens) (UniProt P54764)", "details": "at 10 µM"}, "[20]": {"target": "Ephrin type-A receptor 5 (Homo sapiens) (UniProt P54756)", "details": "at 1 µM"}, "[21]": {"target": "Ephrin type-A receptor 5 (Homo sapiens) (UniProt P54756)", "details": "at 10 µM"}, "[22]": {"target": "Ephrin type-A receptor 7 (Homo sapiens) (UniProt Q15375)", "details": "at 1 µM"}, "[23]": {"target": "T3, Ephrin type-B receptor 1 (Homo sapiens) (UniProt P54762)", "T3 sequence (whole entry)": "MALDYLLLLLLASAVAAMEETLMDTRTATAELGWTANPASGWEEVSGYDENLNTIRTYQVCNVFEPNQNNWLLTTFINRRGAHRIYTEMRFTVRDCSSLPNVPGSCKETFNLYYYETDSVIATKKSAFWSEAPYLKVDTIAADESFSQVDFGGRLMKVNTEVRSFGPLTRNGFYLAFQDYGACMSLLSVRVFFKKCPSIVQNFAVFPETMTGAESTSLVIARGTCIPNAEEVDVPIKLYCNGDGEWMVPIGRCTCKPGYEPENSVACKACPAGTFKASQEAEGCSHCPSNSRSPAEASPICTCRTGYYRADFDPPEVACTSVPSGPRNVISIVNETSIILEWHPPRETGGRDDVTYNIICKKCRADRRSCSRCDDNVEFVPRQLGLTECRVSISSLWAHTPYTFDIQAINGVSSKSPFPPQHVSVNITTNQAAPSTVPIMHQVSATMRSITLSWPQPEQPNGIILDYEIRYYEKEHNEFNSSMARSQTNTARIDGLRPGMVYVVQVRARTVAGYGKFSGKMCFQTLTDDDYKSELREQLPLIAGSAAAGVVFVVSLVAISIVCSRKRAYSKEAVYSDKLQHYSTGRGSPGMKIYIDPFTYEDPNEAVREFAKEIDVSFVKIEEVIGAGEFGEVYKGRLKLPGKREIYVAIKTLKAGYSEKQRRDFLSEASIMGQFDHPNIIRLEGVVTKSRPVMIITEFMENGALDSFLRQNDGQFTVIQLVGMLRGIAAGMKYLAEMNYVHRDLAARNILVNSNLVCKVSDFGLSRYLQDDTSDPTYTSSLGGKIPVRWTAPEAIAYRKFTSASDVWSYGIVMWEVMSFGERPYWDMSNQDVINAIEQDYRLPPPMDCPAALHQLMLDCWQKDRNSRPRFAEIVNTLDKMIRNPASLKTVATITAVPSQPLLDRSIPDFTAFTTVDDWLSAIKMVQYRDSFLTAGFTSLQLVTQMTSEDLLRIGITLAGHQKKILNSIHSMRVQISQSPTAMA", "details": "at 1 µM"}, "[24]": {"target": "Ephrin type-B receptor 2 (Homo sapiens) (UniProt P29323)", "details": "at 10 µM"}, "[25]": {"target": "Receptor tyrosine-protein kinase erbB-4 (Homo sapiens) (UniProt Q15303)", "details": "at 1 µM"}, "[26]": {"target": "Receptor tyrosine-protein kinase erbB-4 (Homo sapiens) (UniProt Q15303)", "details": "at 10 µM"}, "[27]": {"target": "Focal adhesion kinase 1 (Homo sapiens) (UniProt Q05397)", "details": "at 1 µM"}, "[28]": {"target": "Fibroblast growth factor receptor 3 (Homo sapiens) (UniProt P22607)", "details": "at 1 µM"}, "[29]": {"target": "Fibroblast growth factor receptor 4 (Homo sapiens) (UniProt P22455)", "details": "at 1 µM"}},
  "note": "For some assays here: The strong results were mostly taken out for another list; the other results follow. How the calls were made is not given here. The list shows a part of the results, in another mix than the full data.",
  "data": [
    {"smiles": "O=C1NC(=O)C(c2cn(CCCO)c3ncccc23)=C1c1cnccn1", "values": [
      {"measurement": "residual activity", "setting": "[1]", "value": "inactive: 100%"},
      {"measurement": "residual activity", "setting": "[2]", "value": 101, "unit": "%"},
      {"measurement": "residual activity", "setting": "[3]", "value": 105, "unit": "%"},
      {"measurement": "residual activity", "setting": "[4]", "value": 101, "unit": "%"},
      {"measurement": "residual activity", "setting": "[5]", "value": 112, "unit": "%"},
      {"measurement": "residual activity", "setting": "[6]", "value": 110, "unit": "%"},
      {"measurement": "residual activity", "setting": "[7]", "value": 102, "unit": "%"},
      {"measurement": "residual activity", "setting": "[8]", "value": 113, "unit": "%"},
      {"measurement": "residual activity", "setting": "[9]", "value": 110, "unit": "%"},
      {"measurement": "residual activity", "setting": "[10]", "value": 102, "unit": "%"},
      {"measurement": "residual activity", "setting": "[11]", "value": 94, "unit": "%"},
      {"measurement": "residual activity", "setting": "[12]", "value": 118, "unit": "%"},
      {"measurement": "residual activity", "setting": "[13]", "value": 105, "unit": "%"},
      {"measurement": "residual activity", "setting": "[14]", "value": 111, "unit": "%"},
      {"measurement": "residual activity", "setting": "[15]", "value": 103, "unit": "%"},
      {"measurement": "residual activity", "setting": "[16]", "value": 103, "unit": "%"},
      {"measurement": "residual activity", "setting": "[17]", "value": 101, "unit": "%"},
      {"measurement": "residual activity", "setting": "[18]", "value": 100, "unit": "%"},
      {"measurement": "residual activity", "setting": "[19]", "value": 109, "unit": "%"},
      {"measurement": "residual activity", "setting": "[20]", "value": 106, "unit": "%"},
      {"measurement": "residual activity", "setting": "[21]", "value": 101, "unit": "%"},
      {"measurement": "residual activity", "setting": "[22]", "value": 109, "unit": "%"},
      {"measurement": "residual activity", "setting": "[23]", "value": 109, "unit": "%"},
      {"measurement": "residual activity", "setting": "[24]", "value": 104, "unit": "%"},
      {"measurement": "residual activity", "setting": "[25]", "value": 101, "unit": "%"},
      {"measurement": "residual activity", "setting": "[26]", "value": 95, "unit": "%"},
      {"measurement": "residual activity", "setting": "[27]", "value": 102, "unit": "%"},
      {"measurement": "residual activity", "setting": "[28]", "value": 104, "unit": "%"},
      {"measurement": "residual activity", "setting": "[29]", "value": 107, "unit": "%"}
    ]}
  ]
}
